Experimental data as given in patent publication US7070974B1, “Metalloproteases of the neprilysin family” (Universite de Montreal, priority 1999, dated 2006).

Tests used:
[1] = target: T1, sNEP (Oryctolagus cuniculus, UniProt P08049); experiment: HPLC analysis of the hydrolysis of Leu-enkephalin by sNEP; format: biochemical; settings: RP-HPLC, products Tyr-Gly-Gly and Phe-Leu
T1 construct: Fusion of a cleavable signal peptide to the ectodomain of neutral endopeptidase; cleavable signal peptide of proopiomelanocortin (replaces cytosolic and transmembrane domains) (N, cleaved yes); made in house; host or cells: LLC-PK1 cells transfected with pRcCMV-sNEP; concentrated culture medium
T1 sequence (P08049 52-750 limits assumed): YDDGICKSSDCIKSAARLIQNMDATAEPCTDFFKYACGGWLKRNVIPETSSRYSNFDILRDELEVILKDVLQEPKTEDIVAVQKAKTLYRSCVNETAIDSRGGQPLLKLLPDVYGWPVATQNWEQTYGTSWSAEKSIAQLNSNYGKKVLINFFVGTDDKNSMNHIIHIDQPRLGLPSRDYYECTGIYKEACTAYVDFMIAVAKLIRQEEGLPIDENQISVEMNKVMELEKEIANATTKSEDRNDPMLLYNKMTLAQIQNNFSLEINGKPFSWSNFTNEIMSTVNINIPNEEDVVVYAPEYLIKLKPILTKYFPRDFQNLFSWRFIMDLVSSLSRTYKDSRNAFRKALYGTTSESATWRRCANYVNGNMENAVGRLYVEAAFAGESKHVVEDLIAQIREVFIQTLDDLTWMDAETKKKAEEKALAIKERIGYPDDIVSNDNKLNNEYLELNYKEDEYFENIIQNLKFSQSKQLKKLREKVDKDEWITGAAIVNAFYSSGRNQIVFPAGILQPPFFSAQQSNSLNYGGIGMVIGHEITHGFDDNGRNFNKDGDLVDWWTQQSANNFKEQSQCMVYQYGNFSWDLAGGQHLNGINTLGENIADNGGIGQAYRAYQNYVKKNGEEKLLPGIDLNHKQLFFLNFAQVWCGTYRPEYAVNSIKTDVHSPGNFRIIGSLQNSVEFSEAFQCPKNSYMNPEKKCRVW
From the text: (§1) Hydrolysis products were separated by reversed-phase HPLC as described previously.

[2] = target: T2, NL1 (Mus musculus, UniProt Q9JLI3); experiment: HPLC analysis of the hydrolysis of Leu-enkephalin by NL1; format: biochemical; set-up: The soluble form of NL-1 was assayed for activity; made in house; host or cells: HEK 293 cells (section 2, pCDNA3/RSV); settings: RP-HPLC, products Tyr-Gly-Gly and Phe-Leu
T2 sequence (Q9JLI3 63-765 limits assumed): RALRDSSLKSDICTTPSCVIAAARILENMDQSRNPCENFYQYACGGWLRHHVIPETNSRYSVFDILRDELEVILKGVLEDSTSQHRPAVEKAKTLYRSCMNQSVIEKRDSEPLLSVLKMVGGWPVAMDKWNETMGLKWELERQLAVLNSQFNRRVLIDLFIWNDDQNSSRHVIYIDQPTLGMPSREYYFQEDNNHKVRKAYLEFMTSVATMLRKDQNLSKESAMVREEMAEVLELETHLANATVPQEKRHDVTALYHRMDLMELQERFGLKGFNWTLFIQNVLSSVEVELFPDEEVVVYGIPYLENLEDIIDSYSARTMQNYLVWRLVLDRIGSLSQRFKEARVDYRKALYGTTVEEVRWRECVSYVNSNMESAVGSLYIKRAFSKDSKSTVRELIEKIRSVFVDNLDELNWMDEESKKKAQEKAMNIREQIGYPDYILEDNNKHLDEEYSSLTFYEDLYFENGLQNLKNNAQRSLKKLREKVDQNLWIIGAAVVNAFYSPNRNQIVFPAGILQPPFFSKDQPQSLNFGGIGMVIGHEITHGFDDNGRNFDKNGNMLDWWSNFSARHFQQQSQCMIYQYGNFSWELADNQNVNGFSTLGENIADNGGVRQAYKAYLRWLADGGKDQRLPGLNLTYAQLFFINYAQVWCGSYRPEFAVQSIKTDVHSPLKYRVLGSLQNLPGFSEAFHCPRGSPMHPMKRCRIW
From the text: as §1

## Leu5-enkephalin
[1]
  peptide bond cleaved: Gly3-Phe4
[2]
  peptide bond cleaved: Gly3-Phe4
